Experimental data reported in patent publication US9334286B2, “Pharmacologically active compounds” (Cancer Research Technology Limited, priority 2012, dated 2016).

Sequences of proteins named here, by UniProt entry; tags and fusion partners are left off. A change or cut given only in a name is not applied to a line headed by its entry.
UniProt P33981: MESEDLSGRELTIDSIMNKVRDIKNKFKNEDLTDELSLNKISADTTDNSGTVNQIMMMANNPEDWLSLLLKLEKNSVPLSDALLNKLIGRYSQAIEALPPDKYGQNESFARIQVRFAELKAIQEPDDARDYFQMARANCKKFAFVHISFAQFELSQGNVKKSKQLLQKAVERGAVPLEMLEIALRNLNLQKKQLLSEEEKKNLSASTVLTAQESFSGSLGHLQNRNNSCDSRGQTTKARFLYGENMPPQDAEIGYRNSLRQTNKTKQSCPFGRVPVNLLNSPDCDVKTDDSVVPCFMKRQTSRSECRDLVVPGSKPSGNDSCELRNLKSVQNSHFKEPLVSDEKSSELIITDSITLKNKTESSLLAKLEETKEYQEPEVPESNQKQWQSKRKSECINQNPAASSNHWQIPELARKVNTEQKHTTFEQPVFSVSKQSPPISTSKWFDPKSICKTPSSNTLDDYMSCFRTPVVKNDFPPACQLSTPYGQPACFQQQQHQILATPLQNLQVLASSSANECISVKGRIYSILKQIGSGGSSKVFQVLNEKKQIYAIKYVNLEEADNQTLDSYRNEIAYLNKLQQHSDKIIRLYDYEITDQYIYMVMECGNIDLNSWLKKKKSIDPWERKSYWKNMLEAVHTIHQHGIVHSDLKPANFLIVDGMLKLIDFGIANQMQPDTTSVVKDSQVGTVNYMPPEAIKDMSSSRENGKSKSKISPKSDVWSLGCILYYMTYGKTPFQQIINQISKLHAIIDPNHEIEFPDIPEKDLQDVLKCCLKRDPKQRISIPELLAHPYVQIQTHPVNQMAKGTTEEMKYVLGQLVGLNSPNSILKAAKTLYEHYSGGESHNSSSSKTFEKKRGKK

Biological target: full length MPS1 (Homo sapiens (Human), UniProt P33981)
Assay: Measurement of inhibition of MPS1 kinase (Caliper EZ reader, fluorescent labelled peptide H236)
Assay type: biochemical
Settings: full length MPS1 12.5 nM or 3 nM, peptide H236 5 μM, ATP 10 μM, 60 min at room temperature
Experimental: The reaction was carried out for 60 min at room temperature and stopped by the addition of buffer (10 μl) containing 20 mM EDTA, 0.05% (v/v) Brij-35, in 0.1M HEPES-buffered saline (Free acid, Sigma, UK). The plate was read on a Caliper EZ reader II (Caliper Life Sciences).
The reader provides a Software package (‘Reviewer’) which converts the peak heights into % conversion by measuring both product and substrate peak and also allows selection of control well which represent 0% and 100% inhibition respectively. The % inhibition of the compounds is calculated relative to the means of selected control wells. IC50s are determined by testing the compounds at a range of concentrations from 0.25 nM-100 μM. The % inhibitions at each concentration are then fitted to a 4 parameter logistic fit: y=(a+((b−a)/(1+((c/x^d)))) where a=asym min, b=asym max, c=IC50 and d=hill coefficient

IC50: 3 nM
Compound: COc1cc(C(=O)N2CC(OC)C2)ccc1Nc1cc2cc(-c3cnn(C4CCCC4O)c3)ccc2cn1 (racemic) [Example 83, (4-((6-(1-(2-Hydroxycyclopentyl)-1H-pyrazol-4-yl)isoquinolin-3-yl)amino)-3-methoxy-phenyl)(3-methoxyazetidin-1-yl)methanone]
